Experimental data taken from the Kinase Knowledgebase extract (Sharma et al. 2016).

Molecular target: CDK2 (UniProt P24941)
Experiment: Enzyme Assay

IC50: < 0.05 µM
SMILES: O=C(Cc1ccc(N2CCCCC2)cc1)Nc1n[nH]c2ccc(N3CCCS3(=O)=O)cc12
